This note sets out measurements from US7977354B2, “Heterocyclic compounds, their preparation and their use as medicaments, in particular as anti-alzheimer agents” (priority 2005, dated 2011).

The assay has as its target human acetylcholinesterase (Homo sapiens, UniProt P22303). Kind of assay: Cholinesterase activity determination, modified Ellman method. The format is biochemical. Particulars: read-out: Inhibition of human acetylcholinesterase (apparent IC50); human erythrocyte membranes, acetylthiocholine iodide, pH 7.4, 10 min, room temperature. Background: DTNB colorimetry detects thiols as they appear.

As for `CCOC(=O)c1cc(OC(=O)N(C)C)c[n+](C)c1`, the IC50 is 80 µM.

What is called IC50 is the midpoint of a concentration-inhibition curve.
